Each structure is given as a SMILES string. Only a part is listed here, and it is no random draw. Some results for these compounds are left out of this collection, so the calls shown say nothing about other tests. Calls of active or inactive are those of the source.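 The calls were made as follows: active = inhibition above the mean inhibition of all tested compounds plus 3 SD (cut at about 73% in these data); inactive = the rest.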

Protein sequences, listed by entry. Tags and fused reporters are not part of them.
UniProt O00482, whole entry: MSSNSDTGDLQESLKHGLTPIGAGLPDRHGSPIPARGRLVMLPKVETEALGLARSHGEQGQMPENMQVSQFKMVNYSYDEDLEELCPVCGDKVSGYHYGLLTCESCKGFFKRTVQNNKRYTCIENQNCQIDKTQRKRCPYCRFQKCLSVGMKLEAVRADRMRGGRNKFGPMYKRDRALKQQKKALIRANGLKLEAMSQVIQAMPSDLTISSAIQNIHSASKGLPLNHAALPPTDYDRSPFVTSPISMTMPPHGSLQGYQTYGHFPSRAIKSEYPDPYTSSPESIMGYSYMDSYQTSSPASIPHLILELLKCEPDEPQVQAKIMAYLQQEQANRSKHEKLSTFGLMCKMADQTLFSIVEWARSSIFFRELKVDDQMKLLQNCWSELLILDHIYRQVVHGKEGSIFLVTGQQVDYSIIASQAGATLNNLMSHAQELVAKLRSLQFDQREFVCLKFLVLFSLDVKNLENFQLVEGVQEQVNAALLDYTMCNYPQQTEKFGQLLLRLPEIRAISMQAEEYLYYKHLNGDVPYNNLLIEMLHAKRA

One may read the inhibition as the drop in the measured response relative to a control, in per cent.

The target of the test is Nuclear receptor subfamily 5 group A member 2 (Homo sapiens) (UniProt O00482). Briefly: reduction of NR5A2-driven StAR reporter activity – cell-based, luminescence, HEK293T, StAR-luciferase reporter, primary screen (AID 602396).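 Also: 0% = DMSO wells and 100% = reporter-only cells lacking LRH-1.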 As to conditions: LRH-1 transfected, 24 h, at 3.6 µM, stronger effect = higher value. Background: In a reporter assay the amount or activity of a reporter protein is the signal.
Take `O=C(OC1CN2CCC1CC2)C(CO)(c1ccccc1)c1ccccc1` (stereo unspecified): the inhibition was inactive: 2%.

As for `O=C(OCCN1CCCC1)C(O)(c1ccccc1)c1ccccc1`, the inhibition was inactive: 1.93%.

In the case of `CC(C)Oc1ccc(C(=O)NCC2(N(C)C)CCCCC2)cc1`, the inhibition is inactive: 17.1%.

For the molecule `CN(C)c1cccc(C(=O)NCC2(N(C)C)CCCCC2)c1`, the inhibition was inactive: -4.76%.

Turning to `C=C(C)C#CC(O)(C(=O)OC1CCN(C)CC1)c1ccccc1` (stereo unspecified), the inhibition is inactive: 19.9%.

Consider `COc1ccc(Br)c(C(=O)NCC2(N3CCCCC3)CCCCC2)c1`, for which the inhibition was inactive: -12.5%.

On to `COc1cc(C(=O)NCC2(N(C)C)CCCCC2)c([N+](=O)[O-])cc1OC`, for which the inhibition was inactive: -5.79%.

As for `CN(C)C1(CNC(=O)c2ccc(Br)cc2)CCCCC1`, the inhibition was inactive: -1.17%.

On to `O=C(NCC1(N2CCCCC2)CCCCC1)c1cccc(Cl)c1`, for which the inhibition is inactive: -23.9%.

With `COc1ccc(Cl)cc1C(=O)NCC1(N(C)C)CCCCC1`, the inhibition is inactive: -7.51%.

Take `COc1cccc(C(=O)NCC2(N3CCCCC3)CCCCC2)c1`: the inhibition is inactive: 0.98%.

Consider `CN(C)c1ccc(C(=O)NCC2(N(C)C)CCCCC2)cc1`, for which the inhibition is inactive: -0.74%.

Take `CN(C)C1CCCC1OC(=O)C(O)(c1ccccc1)c1ccccc1` (stereo unspecified): the inhibition was inactive: 4.91%.

With `Cc1ccccc1C(=O)NCC1(N2CCCCC2)CCCCC1`, the inhibition was inactive: -5.1%.

Regarding `COc1ccc(C(=O)NCC2(N(C)C)CCCCC2)cc1`, the inhibition was inactive: 7.18%.

Consider `O=C(NCC1(N2CCCCC2)CCCCC1)c1cccc(Br)c1`, for which the inhibition is inactive: -22.8%.

For the molecule `CCN1CCCC(OC(=O)C2(O)c3ccccc3C=Cc3ccccc32)C1` (stereo unspecified), the inhibition is inactive: 9.97%.

As to `Cc1cc(C(=O)NCC2(N3CCCCC3)CCCCC2)ccc1[N+](=O)[O-]`, the inhibition was inactive: -28.6%.

For the molecule `O=C(NCC1(N2CCCCC2)CCCCC1)c1cc(F)c(F)cc1Cl`, the inhibition was inactive: 9.16%.

Turning to `C=CCN1CCN(CCOC(=O)C(O)(c2ccccc2)c2ccccc2)CC1`, the inhibition is inactive: -6.83%.

Turning to `CN1[C@@H]2CC[C@H]1CC(OC(=O)C(O)(c1ccccc1)c1ccccc1)C2` (stereo partly specified), the inhibition is inactive: -10.1%.

Regarding `O=C(NCC1(N2CCCCC2)CCCCC1)c1cc([N+](=O)[O-])ccc1Cl`, the inhibition was inactive: -1.11%.

For `Cc1ccc(C(=O)NCC2(N3CCCCC3)CCCCC2)cc1`, the inhibition is inactive: -45.5%.

For the molecule `COc1cc(SC)ccc1C(=O)NCC1(N(C)C)CCCCC1`, the inhibition is inactive: 2.3%.

In the case of `CCN(CC)CC(C)C(C)OC(=O)C(O)(c1ccccc1)c1ccccc1` (stereo unspecified), the inhibition is inactive: 5.37%.

For `CC(C)N1C(=O)CC2(CCN(CCOC(=O)C(O)(c3ccccc3)c3ccccc3)CC2)C1=O`, the inhibition is inactive: -6.79%.
